Source: PubChem BioAssay AID2023 (NMMLSC, 2009)
Only a part is listed here, and it is no random draw. Some structures show a salt or complex split into parts, the way the source records it. The source made the active and inactive calls.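 How the source made its calls: active means GFP response vs DMSO above a set limit, about the screen mean plus 3 SD (cut at about 150% in these data); inconclusive means under 70 cell events counted for the yeast strain; inactive means the rest.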

Experiment: modulators of LAP4-GFP expression in yeast, primary screen, S. cerevisiae, multiplex flow cytometry, MLPCN library (AID 2023)
Conditions: 3 h, at 10 µM, active compounds read high, median GFP as percent of DMSO wells

Compound | GFP response vs DMSO
CCN(CC)CCCOC(=O)C(O)(c1ccccc1)c1ccccc1 | inactive: 98.4%
COc1ccccc1OP(C)(=O)Nc1cc(Cl)ccc1C (stereo not drawn) | inactive: 109%
COc1ccc(OP(C)(=O)Nc2cccc(F)c2)cc1 (stereo not drawn) | inactive: 97.5%
Cc1cc(C)cc(OP(C)(N)=O)c1 (stereo not drawn) | inactive: 94.7%
CCOC(=O)c1ccc(NP(C)(=O)Oc2ccccc2)cc1 (stereo not drawn) | inactive: 94.6%
COc1ccccc1OP(C)(=O)Nc1ccc(C)cc1 (stereo not drawn) | inactive: 88.1%
CC(C)(C)c1ccc(OP(C)(=O)Nc2ccc(SC(F)(F)F)cc2)cc1 (stereo not drawn) | inactive: 88.6%
Cc1cccc(C)c1OP(C)(N)=O (stereo not drawn) | inactive: 103%
O=[N+]([O-])c1ccc2c(c1)C=Nc1ccccc1O2 | inactive: 121%
O=[N+]([O-])c1cc([N+](=O)[O-])c(Nc2cccnc2)c([N+](=O)[O-])c1 | inactive: 113%
COc1ccccc1OP(C)(=O)Nc1ccccc1 (stereo not drawn) | inactive: 98.4%
CP(=O)(Nc1ccccc1Br)Oc1ccccc1 (stereo not drawn) | inactive: 90.2%
CP(=S)(Nn1cnnc1)Oc1ccccc1 (stereo not drawn) | inactive: 104%
CP(=O)(Nc1ccccn1)Oc1ccc(Cl)cc1 (stereo not drawn) | inactive: 90.8%
CCOP(C)(=S)SCC(=O)NC(C)C(=O)O (stereo not drawn) | inactive: 102%
CCOC(=O)c1ccc(NP(C)(=O)Oc2ccc(OC)cc2)cc1 (stereo not drawn) | inactive: 84.9%
O=[N+]([O-])c1cc([N+](=O)[O-])c(O)c([N+](=O)[O-])c1.c1ccc(Oc2ccncc2)cc1 | inactive: 108%
CCc1ccc(OP(C)(=O)N2CCN(c3ccc([N+](=O)[O-])cc3)CC2)cc1 (stereo not drawn) | inactive: 118%
CP(=O)(NC(=O)Nc1ccccc1)Oc1ccccc1 (stereo not drawn) | inactive: 98.9%
Cc1cc(C)cc(OP(C)(=O)Nc2ccc(SC(F)(F)F)cc2)c1 (stereo not drawn) | inactive: 101%
Cc1cccc(C)c1OP(C)(=O)Nc1ccc(SC(F)(F)F)cc1 (stereo not drawn) | inactive: 87.3%
CP(=O)(Nc1ccc(SC(F)(F)F)cc1)Oc1ccc(Cl)cc1 (stereo not drawn) | inactive: 111%

Compound | GFP response vs DMSO
CP(=O)(Oc1ccccc1)OC(c1ccccc1)C(F)(F)F (stereo not drawn) | inactive: 96.7%
Cc1nc2ccc3ccccc3c2s1.O=[N+]([O-])c1cc([N+](=O)[O-])c(O)c([N+](=O)[O-])c1 | inactive: 97.7%
O=[N+]([O-])c1cc([N+](=O)[O-])c(-c2cnn(-c3ccccc3)c2)c([N+](=O)[O-])c1 | inactive: 126%
O=[N+]([O-])c1cc([N+](=O)[O-])c(-n2nnc3ccccc32)c([N+](=O)[O-])c1 | inactive: 102%
CP(=O)(Nc1ccc(SC(F)(F)F)cc1)Oc1ccccc1 (stereo not drawn) | inactive: 93.4%
CCCOc1ccc(NP(C)(=O)Oc2ccc(Cl)cc2)cc1 (stereo not drawn) | inactive: 105%
COc1ccccc1OP(C)(=O)Nc1c(C)cccc1C (stereo not drawn) | inactive: 98.8%
CN1CCCCC1COC(=O)C1(O)c2ccccc2CCc2ccccc21 (stereo not drawn) | inactive: 83.5%
O=[N+]([O-])c1cc([N+](=O)[O-])c(Nc2nnnn2CCO)c([N+](=O)[O-])c1 | inactive: 84.2%
CC1=C2N=C(C=C3N=C(C(C)=C4[N-][C@@](C)([C@@H]5N=C1[C@](C)(CCC(=O)NC[C@@H](C)OP(=O)([O-])O[C@H]1[C@@H](O)[C@@H](n6cnc7cc(C)c(C)cc76)O[C@@H]1CO)[C@H]5CC(N)=O)[C@@](C)(CC(N)=O)[C@@H]4CCC(N)=O)[C@@](C)(CC(N)=O)[C@@H]3CCC(N)=O)C(C)(C)[C@@H]2CCC(N)=O.[C-]#N.[Co+3] | inactive: 104%
CCOC(=O)C(CC)C1=NC(C)(C)Cc2ccccc21.O=[N+]([O-])c1cc([N+](=O)[O-])c(O)c([N+](=O)[O-])c1 (stereo not drawn) | inactive: 107%
CC1=NCCc2c1[nH]c1ccccc21.O=[N+]([O-])c1cc([N+](=O)[O-])c(O)c([N+](=O)[O-])c1 | inactive: 116%
O=C(O)c1cccc(Nc2c([N+](=O)[O-])cc([N+](=O)[O-])cc2[N+](=O)[O-])c1 | inactive: 112%
CP(=O)(Nc1cccc(Br)c1)Oc1ccccc1 (stereo not drawn) | inactive: 116%
Cc1cc(C)cc(OP(C)(=O)Nc2ccccn2)c1 (stereo not drawn) | inactive: 94.3%
Cc1ccc(C)c(NP(C)(=O)Oc2ccccc2)c1 (stereo not drawn) | inactive: 100%
Cc1cc(C)cc(OP(C)(=O)Nc2ccc(C)cc2C)c1 (stereo not drawn) | inactive: 92.8%
CCOC(=O)c1ccc(NP(C)(=O)Oc2cc(C)cc(C)c2)cc1 (stereo not drawn) | inactive: 101%
COc1ccccc1OP(C)(=O)Nc1cccc(Br)c1 (stereo not drawn) | inactive: 109%
COc1ccc2c(c1O)-c1c(O)c(OC)cc3c1[C@H](C2)[N+](C)(C)CC3.O=[N+]([O-])c1cc([N+](=O)[O-])c([O-])c([N+](=O)[O-])c1[O-] | inactive: 109%
O=C(OCCN1CCN(CCOCc2ccccc2)CC1)C(O)(c1ccccc1)c1ccccc1 | inactive: 93%
O=C(OC1CN2CCC1CC2)c1ccc([N+](=O)[O-])cc1 (stereo not drawn) | inactive: 106%

Compound | GFP response vs DMSO
CC(C)c1ccc(OP(C)(=O)Nc2ccc(SC(F)(F)F)cc2)cc1 (stereo not drawn) | inactive: 106%
CP(=O)(Nc1ccccc1F)Oc1ccccc1 (stereo not drawn) | inactive: 79.3%
CCCCCOc1ccc(NP(C)(=O)Oc2ccc(Cl)cc2Cl)cc1 (stereo not drawn) | inactive: 114%
O=[N+]([O-])c1cc([N+](=O)[O-])c(OC2CCCCC2O)c([N+](=O)[O-])c1 (stereo not drawn) | inactive: 99%
CP(=O)(Nc1ccccc1)Oc1ccc(F)cc1 (stereo not drawn) | inactive: 96.9%
CCN(CC)CCCOC(=O)C(O)(c1ccccc1)C1CCCCC1 (stereo not drawn) | inactive: 108%
COc1ccc(OP(C)(=O)Nc2ccc(SC(F)(F)F)cc2)cc1 (stereo not drawn) | inactive: 94.3%
CCOC(=O)c1ccc(NP(C)(=O)Oc2ccc(F)cc2)cc1 (stereo not drawn) | inactive: 96.1%
O=[N+]([O-])c1cc([N+](=O)[O-])c(NCC2CCS(=O)(=O)C2)c([N+](=O)[O-])c1 (stereo not drawn) | inactive: 93%
O=[N+]([O-])c1ccc(OP2(=O)COCCO2)cc1 (stereo not drawn) | inactive: 90.3%
COc1ccc(NP(C)(=O)Oc2ccccc2OC)cc1 (stereo not drawn) | inactive: 95.5%
CN(C)CCOC(=O)C(O)(c1ccccc1)C1CCCCC1 (stereo not drawn) | inactive: 103%
COc1ccc(OP(C)(=O)Nc2cccc(Br)c2)cc1 (stereo not drawn) | inactive: 95.8%
Cc1ccccc1NP(C)(=O)Nc1ccccc1C | inactive: 86.9%
CP(=O)(Nc1ccc2c(c1)OCCO2)Oc1ccccc1 (stereo not drawn) | inactive: 93.1%
CCOP(C)(=S)SCC(=O)NC(C)(CC)C(=O)O (stereo not drawn) | inactive: 102%
CP(=O)(Nc1ccc(SC(F)(F)F)cc1)Oc1ccc(F)cc1 (stereo not drawn) | inactive: 107%
CN(C)C(=O)c1c([N+](=O)[O-])cc([N+](=O)[O-])cc1[N+](=O)[O-] | inactive: 111%
CP(=O)(Nc1ccc(Cl)cc1)Oc1ccc(F)cc1 (stereo not drawn) | inactive: 92.1%
CC(C)(C)c1ccc(OP(C)(=O)O)cc1 | inactive: 91.8%
COc1ccccc1OP(C)(=O)Nc1ccccc1Br (stereo not drawn) | inactive: 105%
CP(=O)(Oc1ccccc1)N1CCOC1=O (stereo not drawn) | inactive: 98%

Compound | GFP response vs DMSO
CCc1ccc(OP(C)(=O)Nc2cccnc2)cc1 (stereo not drawn) | inactive: 105%
COc1ccccc1OP(C)(=O)Nc1c(C)n(C)n(-c2ccccc2)c1=O (stereo not drawn) | inactive: 79%
O=C(OCCCN1CCCC1)C(O)(c1ccccc1)C1CCCCC1 (stereo not drawn) | inactive: 112%
CCN(CC)CC(O)COC(=O)C(O)(c1ccccc1)C1CCCCC1 (stereo not drawn) | inactive: 104%
COc1ccc(OP(C)(=O)Nc2ccc(Br)cc2)cc1 (stereo not drawn) | inactive: 84.8%
CP(=O)(OC12CC3CC(CC(C3)C1)C2)OC12CC3CC(CC(C3)C1)C2 | inactive: 101%
CCOC(=O)c1ccc(NP(C)(=O)Oc2ccc(Cl)cc2)cc1 (stereo not drawn) | inactive: 94.5%
Nc1ccc2c(ccc3cccnc32)n1.O=[N+]([O-])c1cc([N+](=O)[O-])c(O)c([N+](=O)[O-])c1 | inactive: 127%
CP(=O)(OCCOc1ccccc1)OCCOc1ccccc1 | inactive: 112%
CP(=O)(Nc1ccc(Cl)cc1Cl)Oc1ccccc1 (stereo not drawn) | inactive: 100%
Cc1nc2ccc3ccccc3c2o1.O=[N+]([O-])c1cc([N+](=O)[O-])c(O)c([N+](=O)[O-])c1 | inactive: 90%
COc1ccc(OP(C)(=O)Nc2ccccc2Br)cc1 (stereo not drawn) | inactive: 80.3%
COc1ccccc1OP(C)(=O)Nc1ccc(C)c(C)c1 (stereo not drawn) | inactive: 90.3%
Cc1cc(C)cc(OP(C)(=O)Nc2cccc(C(F)(F)F)c2)c1 (stereo not drawn) | inactive: 103%
CCc1ccc(OP(C)(=O)O)cc1 | inactive: 113%
CP(=O)(Nc1ccccn1)Oc1ccccc1 (stereo not drawn) | inactive: 99.5%
COc1ccccc1OP(C)(=O)Nc1ccc(C)cc1C (stereo not drawn) | inactive: 90.4%
O=[N+]([O-])c1cc([N+](=O)[O-])c(Nc2ccccn2)c([N+](=O)[O-])c1 | inactive: 118%
Cc1c(NP(C)(=O)Oc2ccc(C(C)C)cc2)c(=O)n(-c2ccccc2)n1C (stereo not drawn) | inactive: 103%
CN(C)CCOC(=O)C(O)(c1ccccc1)C1CCCC1 (stereo not drawn) | inactive: 99.2%
COc1ccc(OP(C)(=O)Nc2ccccn2)cc1 (stereo not drawn) | inactive: 100%
COc1ccccc1OP(C)(=O)Nc1ccc(Br)cc1 (stereo not drawn) | inactive: 98.6%
